Results published in patent publication US8598154B2 (Corcept Therapeutics, Inc., priority 2010, dated 2013).

Assays:
[1] = target: T1, Human Recombinant Glucocorticoid Receptor (Homo sapiens, UniProt P04150); assay: Glucocorticoid receptor binding displacement assay with 3H-dexamethasone; settings: displacement of 2.5 nM 3H-dexamethasone; Ki from IC50 by Cheng-Prusoff; read-out: GR Binding Ki
T1 construct: This GR was a full-length steroid hormone receptor likely to be associated with heat-shock and other endogenous proteins; host or cells: baculovirus-infected insect cells
T1 sequence (P04150 1-777): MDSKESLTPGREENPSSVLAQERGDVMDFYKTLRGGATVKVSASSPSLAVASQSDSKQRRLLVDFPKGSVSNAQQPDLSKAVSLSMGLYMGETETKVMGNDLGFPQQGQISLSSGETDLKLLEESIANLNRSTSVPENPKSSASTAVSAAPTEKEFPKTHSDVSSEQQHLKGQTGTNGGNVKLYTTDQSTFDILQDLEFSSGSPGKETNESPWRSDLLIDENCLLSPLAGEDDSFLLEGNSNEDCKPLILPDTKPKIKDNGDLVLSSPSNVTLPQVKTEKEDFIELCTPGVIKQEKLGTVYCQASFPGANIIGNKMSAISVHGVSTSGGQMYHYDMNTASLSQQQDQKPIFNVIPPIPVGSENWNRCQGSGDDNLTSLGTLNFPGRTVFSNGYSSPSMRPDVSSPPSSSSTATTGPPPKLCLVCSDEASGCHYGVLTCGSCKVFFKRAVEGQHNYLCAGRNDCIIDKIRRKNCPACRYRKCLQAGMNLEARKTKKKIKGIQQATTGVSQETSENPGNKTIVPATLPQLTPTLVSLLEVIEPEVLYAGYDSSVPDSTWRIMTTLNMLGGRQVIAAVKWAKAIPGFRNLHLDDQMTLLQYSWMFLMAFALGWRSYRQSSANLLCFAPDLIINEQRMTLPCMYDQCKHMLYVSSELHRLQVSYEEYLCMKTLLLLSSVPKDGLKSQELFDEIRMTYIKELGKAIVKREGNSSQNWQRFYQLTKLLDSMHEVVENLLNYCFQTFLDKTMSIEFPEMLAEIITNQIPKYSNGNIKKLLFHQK
Procedure: Binding protocol: Compounds were tested in a binding displacement assay using human recombinant glucocorticoid receptor with ^3H-dexamethasone as the ligand. The source of the receptor was recombinant baculovirus-infected insect cells. This GR was a full-length steroid hormone receptor likely to be associated with heat-shock and other endogenous proteins.
For the Primary Screen, test compounds were tested at 1 μM in duplicate. These compounds were diluted from 10 mM stock in 100% DMSO. After dilution to 100 μM, 5 μl were added to 245 μl assay buffer to obtained 2 μM compound and 2% DMSO.
For the IC50 determinations, test compounds were tested at 6 concentrations in duplicate (concentration range depends on % inhibition binding that was obtained in the Primary Screen). Test compounds were diluted from 10 mM stock in 100% DMSO. The tested solutions were prepared at 2× final assay concentration in 2% DMSO/assay buffer.
All reagents and the assay plate were kept on ice during the addition of reagents. […]
After 2.5 hrs incubation, unbound counts were removed with dextran coated charcoal (DCC) as follows: 25 μl of DCC solution (10% DCC in assay buffer) was added to all wells and mixed (total volume 225 μl). […] The plate was vigorously shaken for approx. 10 minutes and counted on Topcount. […]

[2] = target: T2, glucocorticoid receptors (GR) in SW1353/MMTV-5 cells (Homo sapiens, UniProt P04150); assay: GR functional assay using SW1353/MMTV-5 cells (MMTV-luciferase reporter); format: cell-based; settings: inhibition of luciferase expression induced by 50 nM dexamethasone, 24 hrs
T2 construct: contains endogenous glucocorticoid receptors; endogenous in cells; host or cells: SW1353/MMTV-5 (human chondrosarcoma, stably transfected with the pMAMneo-Luc reporter only)
T2 sequence (P04150 1-777): T1 sequence (P04150 1-777)
Procedure: SW1353/MMTV-5 is an adherent human chondrosarcoma cell line that contains endogenous glucocorticoid receptors. It was transfected with a plasmid (pMAMneo-Luc) encoding firefly luciferase located behind a glucocorticoid-responsive element (GRE) derived from a viral promoter (long terminal repeat of mouse mammary tumor virus). A stable cell line SW1353/MMTV-5 was selected with geneticin, which was required to maintain this plasmid.
SW1353/MMTV-5 cells were distributed in 96-well plates and incubated in medium (without geneticin) for 24 hrs (in the absence of CO2).

(R)-6-(6-Azetidin-1-yl-pyridine-3-sulfonyl)-1-(4-fluorophenyl)-4a-(oxazol-2-ylmethoxymethyl)-4,4a,5,6,7,8-hexahydro-1H-1,2,6-triazacyclopenta[b]naphthalene [Example 16]
Ki [1]: > 1 nM
Ki [2]: 10 to 50 nM
